{"sequences": {"note": "Amino acid sequences for entries named in this document (tags omitted). Residues count along the entry.", "UniProt Q9NTG7, 102-399 limits assumed": "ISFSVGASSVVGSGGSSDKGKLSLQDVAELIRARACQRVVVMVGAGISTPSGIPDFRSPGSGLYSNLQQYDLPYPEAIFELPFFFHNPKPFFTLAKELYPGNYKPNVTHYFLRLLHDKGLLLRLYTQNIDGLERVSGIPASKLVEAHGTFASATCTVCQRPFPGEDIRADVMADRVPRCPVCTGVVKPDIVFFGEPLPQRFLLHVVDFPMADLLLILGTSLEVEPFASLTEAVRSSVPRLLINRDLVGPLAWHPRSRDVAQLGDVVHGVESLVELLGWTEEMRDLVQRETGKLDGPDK"}, "source": "patent US20260109713A1", "about": "“SIRTUIN MODULATING COMPOUNDS, INCLUDING SIRTUIN ACTIVATING COMPOUNDS, AND APPLICATIONS THEREOF” (CODAGEN BIOSCIENCES, INC., priority 2022, published 2026)", "format_in_all_cases": "biochemical", "key": {"hSIRT3 102-399 [1]": {"molecular_target": "T1, hSIRT3 102-399 (Homo sapiens, UniProt Q9NTG7)", "experiment": "HPLC assay of hSIRT3 102-399 deacetylation of MnSOD peptide, Conditions I (steady state): 1000 μM NAD+, 50 μM MnSOD peptide"}, "hSIRT3": {"molecular_target": "hSIRT3 (Homo sapiens, UniProt Q9NTG7)", "experiment": "Fluorescence-based SIRT3 deacetylation assay using FdL2 peptide, steady state (Conditions I)", "settings": "triplicate"}, "hSIRT3 102-399 [2]": {"molecular_target": "T1, hSIRT3 102-399", "experiment": "HPLC assay of hSIRT3 102-399 deacetylation of MnSOD peptide, Conditions II (non-steady state): 50 μM NAD+, 600 μM peptide"}}, "data": [{"smiles": "CC(O)c1cccc(NC(=O)c2cc3n(n2)C(C(F)(F)F)CC(c2ccc(Cl)cc2)N3)c1", "note": "(stereo not shown)", "values": [{"measurement": "Conditions I, Effect", "setting": "hSIRT3 102-399 [1]; Conditions I (steady state), HPLC/FdL", "value": "Slight Activator"}, {"measurement": "AC50", "setting": "hSIRT3 102-399 [1]; read-out: AC50 (over 50% of maximal activation effect), dose-response, 1 mM NAD+, 50 μM MnSOD peptide, t=30 min", "value": "< 1", "unit": "µM"}, {"measurement": "Activity test, Conditions I, FdL", "setting": "hSIRT3", "value": 100.2}, {"measurement": "Conditions II, Effect", "setting": "hSIRT3 102-399 [2]", "value": "Activator"}]}]}
